{"source": "PubChem BioAssay AID804", "about": "(SRMLSC, 2007)", "note": "Only a part is listed here, and it is no random draw. Active and inactive are the calls of the source.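 The calls were made as follows: active = inhibition above a set limit, 3 SD over the mean compound inhibition (cut at about 44% in these data); inactive = the rest.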", "data": [{"assay": "growth inhibitors of yeast BB579 in restrictive medium, primary screen, yeast lifespan-shortening project, S. cerevisiae (AID 804)", "settings": "OD615, 48 h, at 10 µM, stronger effect = higher value", "procedure,_shortened": "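Assay system – yeast BB579 (DeaD) · Dosing – single compound dose of 10 µM, 0.25% DMSO final · Detection – OD615 turbidity measurement · Buffer or medium – CSMM-D restrictive synthetic medium containing dextrose (glucose) · Benchmarks – positive control amphotericin B 10 µg/mL · Incubation – 48 h exposure, 30 °C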", "values": [{"compound": "O=C(NCC1(N2CCOCC2)CCCCC1)c1cc2ccccc2o1", "inhibition": "inactive: 10.2%"}, {"compound": "O=C(OC1CN2CCC1CC2)C1c2ccccc2Oc2ccccc21", "note": "(stereo not drawn)", "inhibition": "inactive: -39.6%"}, {"compound": "COc1ccc(NC2CCN(CCc3ccccc3)CC2)c(OC)c1", "inhibition": "inactive: -14.9%"}, {"compound": "CN1CCN(CCOC(=O)C(O)(c2ccccc2)c2ccccc2)CC1", "inhibition": "inactive: -22.5%"}, {"compound": "O=C(NCC1(N2CCOCC2)CCCCC1)c1cc(=O)[nH]c2ccccc12", "inhibition": "inactive: -17.5%"}, {"compound": "N#CC1(Nc2ccccc2)CCN(CCc2ccccc2)CC1", "inhibition": "inactive: -17.1%"}, {"compound": "N/C(=N\\O)c1c(N)no[n+]1[O-]", "inhibition": "inactive: -35.7%"}, {"compound": "O=C(OC1CN2CCC1CC2)C1c2ccccc2C=Cc2ccccc21", "note": "(stereo not drawn)", "inhibition": "inactive: -29.5%"}, {"compound": "c1ccc(CN2CCC(Nc3ccccc3)CC2)cc1", "inhibition": "inactive: -32.1%"}, {"compound": "CCN1CCC(Nc2cccc(F)c2)CC1", "inhibition": "inactive: -45.7%"}, {"compound": "Fc1ccccc1NC1CCN(Cc2ccccc2)CC1", "inhibition": "inactive: -30.8%"}, {"compound": "CCC(CO)(C(=O)OC1CN2CCC1CC2)c1ccccc1", "note": "(stereo not drawn)", "inhibition": "inactive: -31.8%"}, {"compound": "CCOc1ncccc1C(=O)NCC1(N2CCOCC2)CCCCC1", "inhibition": "inactive: -32%"}]}]}
